In general, pIC50 refers to the negative decadic logarithm of the IC50, by convention in mol/L.

pIC50: −log10 of the molar value. Read-outs that look alike come from different tables or passages of the source.

The test addresses T1, recombinant human GST-SYK (Homo sapiens, UniProt P43405).
T1 construct: purchased Carna Biosciences 08-176
The test is described as follows: Homogeneous Time-Resolved Fluorescence (HTRF) assay for the recombinant human Syk enzyme. It counts as biochemical. To be noted: GST-hSYK 5 pM, ATP 25 μM, 10-dose titration 10 μM to 0.508 nM. The protocol: Homogeneous Time-Resolved Fluorescence (HTRF) Assay for the Recombinant Human Syk Enzyme
A recombinant GST-hSYK fusion protein was used to measure potency of compounds to inhibit human Syk activity. […] Final volume of the reaction was 10 μL. Phosphorylation of the peptide was allowed to proceed for 45 minutes at room temperature. To quench the reaction and detect the phosphorylated product, 2 nM of a Europium-anti-phosphotyrosine antibody (Perkin Elmer #AD0161) and 70 nM SA-APC (Perkin-Elmer #CR130-100) were added together in 15 mM Tris pH 7.5, 40 mM EDTA, 0.01% tween 20. Final volume of the quenching solution was 10 μL. The resulting HTRF signal was measured after 30 minutes on an EnVision (Perkin-Elmer) reader using a time-resolved fluorescence protocol.
For orientation: TR-FRET usually uses a lanthanide donor and a delayed reading to cut background.

Setting [1] is: read-out: rhSYK Activity (IC50 rating).

As for `NC(=O)c1ncc(N[C@@H]2CS(=O)(=O)CC[C@@H]2N)cc1Nc1cccc(-n2nccn2)n1` (relative stereo) [Example 1.84, rel-5-{[(3S,4S)-4-amino-1,1-dioxidotetrahydro-2H-thiopyran-3-yl]amino(-3-{[6-(2H-1,2,3-triazol-2-yl)pyridin-2-yl]amino}pyridine-2-carboxamide], the pIC50 was 8.74 (read-out: IC50) and greater than 8.00 under setting [1].

`Cc1cc(N(C)C)cc(Nc2cc(N[C@@H]3CCCC[C@@H]3N)cnc2C(N)=O)n1` [Example 1.78]: under setting [1], the pIC50 is greater than 8.00.

Regarding `Cc1nc(Nc2cc(N[C@@H]3CCCC[C@@H]3N)cnc2C(N)=O)ccc1-c1ccncc1` [Example 3.23, 5-{[(lR,2S)-2-aminocyclohexyl]amino}-3-[(2-methyl-3,4′-bipyridin-6-yl)amino]pyridine-2-carboxamide], the pIC50 under setting [1] was greater than 8.00.

(Values after patent US9216173B2, “2-Pyridyl carboxamide-containing spleen tyrosine kinase (SYK) inhibitors” (Merck Sharp & Dohme Corp., priority 2011, dated 2015).)
